The text below walks through data of US10231463B2, “Food mass suitable for microwaving” (Chemische Fabrik Budenheim KG, priority 2013, dated 2019).

The nature of this series: Solubility of the additive in water at 20° C. Format: physicochemical.

For the substance “Ammonium molybdate [AmMD(V), reference compound]”, the Solubility amounted to 430 mg/mL.
For Calcium gluconate [CaGl] the value was 30 mg/mL.

Usually Solubility stands for the concentration that dissolves in the medium under given conditions. Low values mean a poorly soluble substance, high ones a readily soluble substance.
